Results from PMC5402964.

The chains behind the UniProt entries cited, without tags or fusion partners. Where a name states a change or a piece, a line headed by the entry shows the natural chain unless it says otherwise.
UniProt P06756: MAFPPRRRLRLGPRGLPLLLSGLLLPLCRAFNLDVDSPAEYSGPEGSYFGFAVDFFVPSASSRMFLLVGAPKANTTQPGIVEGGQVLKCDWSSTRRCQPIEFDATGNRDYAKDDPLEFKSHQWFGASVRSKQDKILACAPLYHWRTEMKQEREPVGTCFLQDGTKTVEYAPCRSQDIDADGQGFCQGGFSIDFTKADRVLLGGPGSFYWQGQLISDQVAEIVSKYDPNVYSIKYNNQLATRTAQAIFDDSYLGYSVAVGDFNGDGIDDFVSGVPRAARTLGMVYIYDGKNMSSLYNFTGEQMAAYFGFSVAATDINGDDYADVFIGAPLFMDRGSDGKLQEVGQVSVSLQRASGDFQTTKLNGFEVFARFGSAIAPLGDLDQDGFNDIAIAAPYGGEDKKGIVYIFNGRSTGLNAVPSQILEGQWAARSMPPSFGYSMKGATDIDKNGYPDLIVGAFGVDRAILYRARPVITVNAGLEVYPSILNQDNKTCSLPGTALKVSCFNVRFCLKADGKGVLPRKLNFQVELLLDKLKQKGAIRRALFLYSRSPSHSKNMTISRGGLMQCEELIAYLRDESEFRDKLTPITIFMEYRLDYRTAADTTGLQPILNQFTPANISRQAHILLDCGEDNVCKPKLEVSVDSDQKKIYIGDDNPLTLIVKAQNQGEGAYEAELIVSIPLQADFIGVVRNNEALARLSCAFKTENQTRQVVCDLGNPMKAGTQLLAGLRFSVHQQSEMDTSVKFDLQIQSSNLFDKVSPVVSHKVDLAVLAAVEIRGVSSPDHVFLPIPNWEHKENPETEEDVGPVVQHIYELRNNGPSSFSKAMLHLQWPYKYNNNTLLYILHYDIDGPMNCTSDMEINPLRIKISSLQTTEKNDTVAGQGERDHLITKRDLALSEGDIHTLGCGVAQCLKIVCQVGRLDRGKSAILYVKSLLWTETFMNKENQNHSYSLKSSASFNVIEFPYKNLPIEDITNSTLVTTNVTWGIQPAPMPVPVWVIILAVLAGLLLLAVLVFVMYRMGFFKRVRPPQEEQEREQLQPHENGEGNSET

Tests used:
αVβ3 integrin [1] = target: αVβ3 integrin (UniProt P06756)
αVβ3 integrin [2] = target: αVβ3 integrin (UniProt P06756); test: SPR; BIAcore T200; integrins amine-coupled to a CM5 chip (α5β1 at pH 4.5, 4,325.2 RU; αVβ3 at pH 4.0, 6,677.1 RU); DisBa-01 0.1-100 μM injected; HBS-EP (0.01 M Hepes pH 7.4, 0.15 M NaCl, 0.005 (v/v) Surfactant P20), 25°C, 30 μL/min; DisBa-01 assumed monomeric, MR 12,000 Da

## DisBa-01 (disintegrin of Bothrops alternatus), recombinant His-tag protein (natural protein)
αVβ3 integrin [1]
  decrease in migration speed of OSCC (SCC25) cells on fibronectin-coated dishes in the presence of DisBa-01 (1 or 2 μM, in the media or in the substrate): 40%
αVβ3 integrin [2]
  fold affinity against α5β1 integrin: 100 fold
